Earlier results in patent US20240382467A1, “COMPOSITIONS AND METHODS FOR TREATING AND/OR PREVENTING LUNG INJURY” (published 2024).

Details: cited from earlier work

## N=C1C(=O)NC(=O)c2cc(-c3ccccc3)sc21
At the selected doses (5 or 10 mg/kg IP, Example 14)
  plasma levels: 1000 nM
In vivo
  plasma half-life: long
